Columns and labels:
[1] = system: microglial activation marker CD11b; test: Brain immunohistochemistry and densitometry of microglial activation marker (Example 4); assay type: in vivo, rat; settings: for CD11b densitometry: FIG. 7
Experimental: (§1) Following scoring of withdrawal behaviors animals received an intraperitoneal injection of 0.8 ml of 50 mg/ml sodium pentobarbital, and once anesthetized, animals were transcardially perfused. Half of each treatment group were perfused with saline and half with 4% paraformaldehyde. Spinal cord and brains were collected (saline perfusion for protein and mRNA quantification and paraformaldehyde perfusion for immunohistochemistry). Samples collected from saline perfused animals were flash frozen in liquid nitrogen and stored at −80° C. Paraformaldehyde perfused samples were stored in 4% paraformaldehyde for 48 hours and then transferred to 30% sucrose (0.1% azide) until tissue sectioning.
Immunoreactivity for OX-42 (antibody that recognizes complement type 3 receptors, e.g., CD11b) and/or glial fibrillary acidic protein (GFAP), microglial and astrocyte activation markers, respectively, were assessed. Sections (20 μm) were treated with 0.3% H2O2 in Tris-buffered saline (TBS) for 20 minutes at room temperature to suppress endogenous peroxidase activity. Sections were then incubated overnight at 4° C. in monoclonal mouse anti-rat OX-42 (1:100; Pharmingen, San Diego, Calif.) or monoclonal mouse anti-rat GFAP antibody (1:200; Chemicon, Temecula, Calif.) in TBS with 2% normal goat serum and 0.5% Triton-X-100. Subsequently, sections were incubated with the appropriate secondary biotinylated antibodies (1:400; Jackson ImmunoResearch, West Grove, Pa.) for 2 hours at room temperature, incubated in avidin -biotin complex solution (ABC; 1:200; Vector Laboratories, Burlingame, Calif.) for 2 hours at room temperature, followed by reaction with 0.5 mg/ml 3,3′-diaminobenzidine tetrahydrochloride (DAB; Sigma). Finally, sections were dried, dehydrated, and coverslipped with Permount. Staining was evaluated by light microscopy. Densitometry of immunohistochemical staining was subsequently evaluated using computer software (NIH image).

interleukin-1 mRNA = test: mRNA analysis of brain nuclei by real-time PCR (Example 4); assay type: in vivo, rat; settings: dorsal periaqueductal grey region, FIG. 8
Experimental: as §1
Amplification of cDNA was performed using the QUANTITECT SYBR GREEN PCR kit (Qiagen, Valencia, Calif.) in ICYCLER IQ 96-well PCR plates (Bio-Rad, Hercules, Calif.) on a MYIQ single color real-time PCR detection system (Bio-Rad). The reaction mixture (26 μl) was composed of 1× QUANTITECT SYBR GREEN PCR master mix (containing the fluorescent dye SYBR green I, 2.5 mM MgCl2, dNTP mix, and HOTSTART Taq DNA polymerase), 10 nM fluorescein, 500 nM each of forward and reverse primers, 25 ng cDNA and nuclease-free H2O. Reactions were done in triplicate (n=3-6 animals/group). […] Linearity and efficiency of PCR amplification were assessed using standard curves generated by increasing amounts of cDNA. […]

CC(C)C(=O)c1c(C(C)C)nn2ccccc12 [ibudilast, 2-methyl-1-(2-(1-methylethyl)pyrazolo(1,5-a)pyridin-3-yl)1-propanone]
morphine-induced increase in CD11b staining ([1]; immunohistochemistry, FIG. 6): dramatically reduced the increase in the CD11b marker
CD11b densitometry ([1]; periaqueductal grey): significant reduction in the microglial activation marker CD11b
CD11b densitometry ([1]; trigeminal nucleus): significant reduction in the microglial activation marker CD11b
morphine induced increase in interleukin-1 mRNA (interleukin-1 mRNA): completely blocked the morphine induced increase in interleukin-1 mRNA
